We go through 10 compounds from patent US20260055126A1, “SMALL MOLECULE COMPOUNDS WITH PHOSPHORYLATED ARYL STRUCTURES AND USE THEREOF” (HANGZHOU PHECDAMED CO., LTD., priority 2022, published 2026).

Protein sequences, listed by entry. Tags and fused reporters are not part of them. Residues count along the entry.
UniProt Q99594, 218-435: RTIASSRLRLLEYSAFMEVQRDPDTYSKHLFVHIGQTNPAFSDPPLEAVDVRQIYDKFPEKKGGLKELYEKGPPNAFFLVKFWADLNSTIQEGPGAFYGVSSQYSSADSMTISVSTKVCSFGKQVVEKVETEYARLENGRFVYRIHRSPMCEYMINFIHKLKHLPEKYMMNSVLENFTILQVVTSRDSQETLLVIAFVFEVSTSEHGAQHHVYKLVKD
UniProt Q15562, 218-447: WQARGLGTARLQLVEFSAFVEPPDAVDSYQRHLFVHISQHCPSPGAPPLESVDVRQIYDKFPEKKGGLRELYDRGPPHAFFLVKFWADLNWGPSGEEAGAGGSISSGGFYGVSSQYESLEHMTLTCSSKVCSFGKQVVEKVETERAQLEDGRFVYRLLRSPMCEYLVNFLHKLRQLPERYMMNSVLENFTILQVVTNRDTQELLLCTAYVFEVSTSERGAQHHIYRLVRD
UniProt Q15561, 217-434: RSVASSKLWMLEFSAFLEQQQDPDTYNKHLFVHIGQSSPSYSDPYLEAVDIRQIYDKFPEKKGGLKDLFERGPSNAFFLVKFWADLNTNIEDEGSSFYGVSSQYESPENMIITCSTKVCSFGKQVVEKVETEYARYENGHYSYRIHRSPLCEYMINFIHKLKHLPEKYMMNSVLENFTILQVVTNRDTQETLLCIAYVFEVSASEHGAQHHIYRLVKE

Data set [1] relates to recombinant TEAD1 protein (194-411, Uniprot ID: P28347). Kind of data set: Thermal shift assay (protein melting point curve), TEAD1. In kind it is binding. More on the design: key: the ability of the compound to bind to the TEAD protein is divided into four levels: ++++, +++, ++, +; the ability of the compound to bind to the TEAD protein is divided into four levels: ++++, +++, ++, +; the ability of the compound to bind to the TEAD protein is divided into four levels: ++++, +++, ++, +; the ability of the compound to bind to the TEAD protein is divided into four levels: ++++, +++, ++, +. Particulars: 10 μM TEAD protein, 50 μM test compound. The method, then:
(§1) The ability of the compounds to increase the melting point of purified recombinant TEAD1/2/3/4 proteins is tested using a thermal shift assay. The strength of the compound's binding to the protein and the selectivity of the compound's binding to the four TEAD subtypes are evaluated by calculating the melting point shift ΔTm−° C. The larger the ΔTm value, the stronger the compound's ability to stabilize the protein, reflecting its stronger binding ability. Based on the Δ Tm value, the ability of the compound to bind to the TEAD protein is divided into four levels: ++++, +++, ++, +.
(§2) Test method of protein melting point curve: 10 μL of the protein melting point curve experimental system (10 μM TEAD protein, 50 μM test compound, SYPRO® orange (55692, sigma)) is prepared in a 384-well fluorescence quantitative PCR plate according to the following system, and reacted at 4° C. in the dark for 20 minutes. On-machine reaction: ABI QuantStudio Dx fluorescence quantitative PCR instrument; program: from 25° C. to 80° C., increasing the temperature at a rate of 0.05° C./s, and reading the fluorescence channel signal of the corresponding wavelength of SYPRO® orange every second.

In data set [2] the target is recombinant TEAD3 protein (218-435, Uniprot ID: Q99594) (Homo sapiens (Human), UniProt Q99594). Kind of data set: Thermal shift assay (protein melting point curve), TEAD3. In kind it is binding. Particulars: 10 μM TEAD protein, 50 μM test compound. The method, then:
(§3) The ability of the compounds to increase the melting point of purified recombinant TEAD1/2/3/4 proteins is tested using a thermal shift assay. The strength of the compound's binding to the protein and the selectivity of the compound's binding to the four TEAD subtypes are evaluated by calculating the melting point shift ΔTm−° C. […] Based on the Δ Tm value, the ability of the compound to bind to the TEAD protein is divided into four levels: ++++, +++, ++, +.
as §2

For the next data set, the system named is TEAD family proteins. Kind of data set: Thermal shift assay, summary over all TEAD subtypes. The data set is classed as binding. Particulars: summary of Table 1. The method, then:
as §1, §2

A short description of data set [3]: In vitro liver microsome stability, human. Particulars: for metabolic stability: human liver microsome environment; for human half-life: human liver microsomes. The data set is classed as in vitro ADME. The protocol:
(§4) Testosterone is selected as the positive reference compound. The specific method is as follows:
(§5) Preparing 0.1MK3 PO4 (pH 7.4) buffer and 3×NADPH stock solution (6 mM, 5 mg/mL), and preheating in a 37° C. water bath; preparing spiking solution of tested compound and control compound: adding 5 μL compound stock solution (10 mM) to 95 μL acetonitrile; preparing 1.5 μM spiking solution in microsomes (0.75 mg/mL): add 1.5 μL spiking solution and 18.75 μL liver microsome solution (20 mg/mL) to 479.75 μL K3PO4 buffer; taking 30 μL spiking solution in microsomes and adding it to the multiwell plate, and incubating at 37° C. for 5 min; adding 15 μL of NADPH stock solution to each well, starting to react, and timing; adding 150 μL of acetonitrile solution containing IS at 0 min, 5 min, 15 min, 30 min, 45 min and 60 min respectively to terminate the reaction; after 10 min of oscillation, centrifuging the reaction at 6000 rpm for 15 min; taking 80 μL of supernatant from each well for LC/MS detection and calculating Ti/2.
(§6) Liver microsomes of mice, rats, dogs, and human used in the experiment are purchased from Xenotech.

Data set [4] can be described thus: In vitro liver microsome stability, dog. The data set is classed as in vitro ADME. The protocol: as §4, §5, §6
On the technique in general: Liver microsomes are vesicles of endoplasmic reticulum, rich in cytochrome P450 enzymes.

Data set [5] in a line: In vitro liver microsome stability, rat. The data set is classed as in vitro ADME. The method, then:
as §4, §5, §6

In data set [6] the target is recombinant TEAD2 protein (218-447, Uniprot ID: Q15562) (Homo sapiens (Human), UniProt Q15562). Kind of data set: Thermal shift assay (protein melting point curve), TEAD2. The note with it: 10 μM TEAD protein, 50 μM test compound. In kind it is binding. The protocol:
as §3, §2

Data set [7] in a line: In vitro liver microsome stability, mouse. The data set is classed as in vitro ADME. Particulars: for metabolic stability: mouse liver microsome environment; for mouse half-life: mouse liver microsomes. The method, then: as §4, §5, §6
The next data set concerns Caco-2 cells. Description: Permeability test on Caco2 cells. Particulars: for Papp average value: n = 2; for Papp: single replicate. In kind it is in vitro ADME. The protocol:
After resuscitation, the Caco-2 cells are transferred to a conventional culture dish and cultured in a high-glucose DMEM medium (containing 10% FBS) at 37° C. and 5% CO2 in an incubator. When the cells cover 80% to 95% of the bottom of the dish, they are digested with trypsin containing 0.25% EDTA to disperse them into a single cell suspension, and the cell concentration is determined using a cell counter, after that, the concentration of the cell suspension is adjusted to 2 to 2.5×10^5/mL with fresh culture medium and inoculated into a Transwell polycarbonate membrane 12-well plate, the fresh culture medium is replaced every two days in the first two weeks and once a day in the last week, the culture is continued for 19 to 21 days to obtain a fully differentiated single cell layer.
A general note: Caco-2 monolayers are a common model of the intestinal barrier.

Data set [8] addresses recombinant TEAD4 protein (217-434, Uniprot ID: Q15561) (Homo sapiens (Human), UniProt Q15561). Description: Thermal shift assay (protein melting point curve), TEAD4. Particulars: 10 μM TEAD protein, 50 μM test compound. The data set is classed as binding. More on the design: key to the marks not given beside the values. The protocol:
as §3, §2

“And” between values parts separate entries of the source, which are not always exact repeats. Identical values can stand only once.

For the compound `Cc1nc(-c2cc(P(C)(C)=O)ccc2Oc2ccc(C(F)(F)F)cc2)no1` [Compound 6], the “Δ T m (TEAD1)” value in data set [1] is recorded as “++++”. Besides, the “Δ T m (TEAD3)” value in data set [2] is “+++”. Moreover, the “binding ability to each subtype of TEAD family proteins” value (“binding ability to each subtype” for short) with TEAD family proteins is given as “good binding abilities”.

For the compound `CP(C)(=O)c1ccc(Nc2ccc(C(F)(F)F)cc2)c(-c2nccc(OC3COC3)n2)c1` [Compound 8], the “metabolic stability” value in [3], in data set [4] (dog liver microsome environment), in [5] (rat liver microsome environment) and in data set [7] was “good metabolic stabilities” in each case. Further, in data set [3], the human half-life was 1.97 h. In addition, the “Δ T m (TEAD1)” value in [1] is “++++”. The same compound displayed a dog half-life in data set [4] (dog liver microsomes) of 2.95 h. For the same compound, the rat half-life in [5] (rat liver microsomes) turned out to be 2.62 h. In addition, the “Δ T m (TEAD2)” value in [6] is given as “++”. Moreover, the mouse half-life in [7] stood at 1.26 h. In addition, the Papp average value in the data set on Caco-2 cells (AP→BL) is recorded as 7.80 10^−6 cm/s; with Caco-2 cells (BL→AP), 50.6 10^−6 cm/s. For the same compound, the Papp in the data set on Caco-2 cells (AP→BL) is 6.90 10^−6 cm/s and 8.70 10^−6 cm/s; in the data set on Caco-2 cells (BL→AP) it was 52.7 10^−6 cm/s and 48.5 10^−6 cm/s. The “intestinal permeability” value in the data set with Caco-2 cells (Caco2 cell model) is “high intestinal hypertonicity”. Further, in [8], the “Δ T m (TEAD4)” value is given as “++++”. Further, the “Δ T m (TEAD3)” value in [2] is “++”. The “binding ability to each subtype” value with TEAD family proteins is recorded as “good binding abilities”.

For the compound `O=P1(c2ccc(Nc3ccc(C(F)(F)F)cc3)c(-c3ncccn3)c2)CC(c2ccccn2)C1` (stereo not shown) [Compound 22], the “Δ T m (TEAD1)” value in data set [1] is on record as “+++”. Besides, the “binding ability to each subtype” value with TEAD family proteins was “good binding abilities”.

For `CP(C)(=O)c1ccc(Nc2ccc(C3CC3)cc2)c(-c2nccc(OC3COC3)n2)c1` [Compound 27], in [1], the “Δ T m (TEAD1)” value is given as “++++”. Moreover, the “Δ T m (TEAD2)” value in [6] is “++”. The “Δ T m (TEAD3)” value in data set [2] was “+”.

Consider `COc1ccc(Nc2ccc(P(C)(C)=O)cc2-c2nccc(OC3COC3)n2)cc1` [Compound 28], for which, in data set [3], the “metabolic stability” value was “good metabolic stabilities” and the human half-life is over 3.1 h. Also, in data set [1], the “Δ T m (TEAD1)” value is “++++”. Moreover, the “Δ T m (TEAD2)” value in data set [6] was “++”. In data set [7], the “metabolic stability” value is recorded as “good metabolic stabilities” and the mouse half-life was over 3.1 h. Moreover, the “Δ T m (TEAD3)” value in data set [2] is listed as “+”.

As to `CSc1ccc(Nc2ccc(P(C)(C)=O)cc2-c2nccc(OC3COC3)n2)cc1` [Compound 29], in data set [1], the “Δ T m (TEAD1)” value is “++++”. Also, the “Δ T m (TEAD2)” value in data set [6] is “++”. The “Δ T m (TEAD3)” value in data set [2] was “+”.

As for `CP(C)(=O)c1ccc(NC23CC4CC(CC(C4)C2)C3)c(-c2nccc(OC3COC3)n2)c1` [Compound 31], in data set [1], the “Δ T m (TEAD1)” value was “++++”. Moreover, the “Δ T m (TEAD2)” value in data set [6] is given as “+”. In addition, in data set [2], the “Δ T m (TEAD3)” value is on record as “+”.

As for `C=CP(=O)(C=C)c1ccc(Nc2ccc(C(F)(F)F)cc2)c(-c2cn(C)cn2)c1` [Compound 68], in data set [3], the “metabolic stability” value was “good metabolic stabilities” and the human half-life was over 3.1 h. For the same compound, the “Δ T m (TEAD1)” value in data set [1] is recorded as “++++”. In addition, in [7], the “metabolic stability” value is “good metabolic stabilities” and the mouse half-life is over 3.1 h. In addition, the “binding ability to each subtype” value in the data set with TEAD family proteins was “good binding abilities”.

On to `Cn1cnc(-c2cc(P(C)(C)=O)nnc2Nc2ccc(C(F)(F)F)cc2)c1` [Compound 73], for which the “Δ T m (TEAD1)” value in data set [1] was “++++”. For the same compound, in the data set on TEAD family proteins, the “binding ability to each subtype” value was “good binding abilities”.

`Cn1cnc(-c2cc(P(C)(C)=O)ccc2Nc2ccc(S(F)(F)(F)(F)F)cc2)c1` [Compound 75]: in data set [1], the “Δ T m (TEAD1)” value is recorded as “++++”. Besides, the “binding ability to each subtype” value in the data set on TEAD family proteins is listed as “good binding abilities”.
